Results reported in patent publication US20240335425A1, “PHARMACEUTICAL COMPOSITIONS OF ALPHA-2-ADRENERGIC RECEPTOR AGONISTS AND THEIR USE FOR IMPROVING VISION” (Allergan, Inc., priority 2020, published 2024).

Target: T1, bovine alpha adrenergic 1A receptor (Bos taurus, UniProt P18130)
T1 construct: expressed in transfected cells
T1 sequence (P18130 1-466): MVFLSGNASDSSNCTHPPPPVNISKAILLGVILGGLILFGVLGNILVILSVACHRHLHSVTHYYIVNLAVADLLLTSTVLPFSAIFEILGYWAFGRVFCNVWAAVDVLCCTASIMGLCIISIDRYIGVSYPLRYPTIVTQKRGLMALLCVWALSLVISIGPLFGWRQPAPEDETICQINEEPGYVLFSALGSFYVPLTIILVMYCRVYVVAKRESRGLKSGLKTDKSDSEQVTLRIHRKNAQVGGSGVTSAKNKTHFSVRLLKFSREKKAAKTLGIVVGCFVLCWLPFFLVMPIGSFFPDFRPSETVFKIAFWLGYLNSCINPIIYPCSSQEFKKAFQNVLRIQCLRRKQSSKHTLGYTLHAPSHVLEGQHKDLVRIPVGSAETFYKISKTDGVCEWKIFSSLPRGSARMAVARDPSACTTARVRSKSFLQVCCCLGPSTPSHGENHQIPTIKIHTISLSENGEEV
Assay: FLIPR calcium assay, HEK293 cells stably expressing bovine alpha 1A receptor
Format: cell-based
Protocol: An in vitro FLIPR (fluorometric image plate reader) assay was performed on several compounds, including the compound of Formula I (entry 1 in Table 1).
Specifically, four HEK293 stable cell lines were used in the FLIPR assay. The HEK293 cell line which stably expressed the bovine alpha adrenergic 1A receptor was used to characterize the alpha1 pharmacology. The alpha-2 adrenergic receptor family is a G coupled G-protein receptor. Therefore, in order to use these cell lines in the calcium based FLIPR assay, the chimeric G-protein Gqi5 was used to force the coupling of the human alpha-2A, alpha-2B, and alpha-2C receptors to the calcium pathway. […]
The receptor activation was initiated by the addition of the appropriate dilutions of compounds and the transient calcium signal was captured. The peak height of the calcium curve was determined and utilized for calculation of EC50 and relative efficacy values using Activity Base software. EC50 was calculated using a 4 Parameter Logistic Equation: y=A+((B−A)/(1+((C/x)^D))) where A and B represents the bottom and top plateau of the curve; C represents the EC50 value; D represents the slope factor; and x and y represent the original x (drug concentration) and y (fluorescence signal, RFU) values.

Structure (SMILES)	EC50 [nM]
Brc1c(N=C2NCCN2)ccc2[nH]cnc12 [Compound 3]	1000
CCc1c(N=C2NCCN2)ccc2[nH]cnc12 [Compound 2]	1650
